Reference: patent US5914236A, “PCT-65 serotonin receptor” (United States of America, priority 1995, dated 1999)

The chains behind the UniProt entries cited, without tags or fusion partners. Residues count along the entry.
UniProt P32305, 45-448: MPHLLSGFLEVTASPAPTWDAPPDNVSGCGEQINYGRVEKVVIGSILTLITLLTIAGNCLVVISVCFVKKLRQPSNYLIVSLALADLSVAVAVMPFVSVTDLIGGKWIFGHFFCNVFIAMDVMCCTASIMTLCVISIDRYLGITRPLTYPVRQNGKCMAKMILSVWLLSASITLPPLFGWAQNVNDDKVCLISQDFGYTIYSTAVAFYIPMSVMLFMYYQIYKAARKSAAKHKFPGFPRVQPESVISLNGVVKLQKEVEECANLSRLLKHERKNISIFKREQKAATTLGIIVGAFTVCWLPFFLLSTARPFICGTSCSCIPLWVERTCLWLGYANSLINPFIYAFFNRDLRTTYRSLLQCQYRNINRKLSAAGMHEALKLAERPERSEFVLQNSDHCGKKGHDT

What was measured:
[1] = target: T1, PCT-65 receptor (Rattus norvegicus, UniProt P32305); experiment: Competition binding to PCT-65 receptor (radioligand not specified)
T1 construct: expressed in transfected cells; host or cells: COS-7 cells (transient, calcium phosphate, pSRα-65)

[2] = target: T1, PCT-65 receptor; experiment: [3H]-5-HT competition binding to PCT-65 receptor in membranes of transfected COS-7 cells; settings: competing with [3H]-5-HT (1 nM), COS-7 membranes, 37 °C; geometric mean ± SEM (n=3)
Method: (§1) This plasmid construct (pSRα-65) was introduced into COS-7 cells by calcium phosphate-mediated transfection.
Specifically, transfected cells were scraped into PBS with 5 mM EDTA, spun, polytroned, spun, suspended in 100 mM Tris, 20 mM MgSO4, 1 mM EDTA, pH7.7. 0.5 ml of this solution containing 10-25 μg protein was added to 0.5 ml of a 2 mM ascorbic acid solution containing the ligand and drugs and incubated for 30 min at 37° C. Filtration was performed on GF/C paper (0.1% PEI solution pre-treatment) with a 10 ml rinse.

[3] = target: T1, PCT-65 receptor; experiment: [3H]-LSD competition binding to PCT-65 receptor in membranes of transfected COS-7 cells; settings: competing with [3H]-LSD (1.5-2.2 nM), COS-7 membranes, pH 7.4, 37 °C, 60 min; geometric mean ± SEM (n=3)
Source text: as §1

With `NC[C@H](O)c1ccc(O)c(O)c1` [Norepinephrine] the Ki ([1]; radioligand not given, read-out: Ki (compounds not in Table 1)) was > 1300 nM.

In the case of `COc1ccc2[nH]cc(CCN)c2c1` [5-Methoxytryptamine], the Ki [2] is reported as 0.57 ± 0.03 nM.

With `CSc1ccc2c(c1)C(N1CCN(C)CC1)Cc1ccccc1S2` (centres unmarked) [Methiothepin] the Ki [2] was 0.38 ± 0.18 nM, the Ki [3] was 1.03 ± 0.16 nM and the “affinity for PCT-65 (in words)” value ([1]; expressed in mammalian cells (COS-7)) was “relatively high affinity”.
